Where two headings read alike, the source gives them in different places.
Key:
[1] = system: me3-RCC1 and me3-SET in HEK293 cells; conditions: 1 μM; cited from earlier work
[2] = target: T1, NTMT1 (Homo sapiens, UniProt Q9BV86); conditions: for IC50: NTMT1 inhibition; for fold reduction in inhibition: fluoride or nitro instead of hydroxyl at the meta position
T1 sequence (Q9BV86 1-222): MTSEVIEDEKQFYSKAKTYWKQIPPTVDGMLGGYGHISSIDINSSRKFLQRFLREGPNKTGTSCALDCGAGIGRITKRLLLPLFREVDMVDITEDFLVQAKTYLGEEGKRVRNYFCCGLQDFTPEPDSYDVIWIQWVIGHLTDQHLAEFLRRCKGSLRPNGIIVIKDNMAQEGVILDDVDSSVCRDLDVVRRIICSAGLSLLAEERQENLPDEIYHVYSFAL

[3] = system: me3-RCC1 and me3-SET in HEK293 cells; experiment: cellular N-methylation level study; assay type: cell-based; conditions: read-out: approximate IC50
[4] = system: other methyltransferases including PKMTs, PRMTs, and DNA methyltransferases

In the case of `CC(C)(NC(=O)O[C@@H]1CN2CCC1CC2)c1csc(-c2ccc(F)cc2)n1` [venglustat, (S)-quinuclidin-3-yl (2-(2-(4-Fluorophenyl)thiazol-4-yl)propan-2-yl)carbamate], the “effect on me3-RCC1 and me3-SET” value [1] is given as “significantly suppressed”.
For `CC(C)(NC(=O)O[C@@H]1CN2CCC1CC2)c1csc(I)n1` [Compound 15, (S)-quinuclidin-3-yl (2-(2-Iodothiazol-4-yl)propan-2-yl)carbamate], the “fold loss of potency compared to venglustat” value (“fold loss of potency” below) ([2]; NTMT1 IC50) was “about 100 fold”.
For `CC(C)(NC(=O)O[C@@H]1CN2CCC1CC2)c1csc(-c2cncnc2)n1` [YD2160], the “NTMT1 inhibition (in words)” value [2] was “inactive”.
In the case of `CC(C)(NC(=O)O[C@@H]1CN2CCC1CC2)c1csc(-c2cccc3ccccc23)n1` [Compound 22], the “fold decrease compared to the phenyl ring analogue” value ([2]; NTMT1 IC50) is reported as 20 fold.
With `CC(C)(NC(=O)O[C@@H]1CN2CCC1CC2)c1csc(-c2ccc(F)nc2)n1` [Compound 31] the “fold loss of potency” value ([2]; NTMT1 IC50) was 3 fold.
For `CNc1nc(C(C)(C)NC(=O)O[C@@H]2CN3CCC2CC3)cs1` [Compound 18, (S)-quinuclidin-3-yl (2-(2-(Methylamino)thiazol-4-yl)propan-2-yl)carbamate], the “fold loss of potency” value ([2]; NTMT1 IC50) was “about 100 fold”.
In the case of `CC(C)(NC(=O)O[C@@H]1CN2CCC1CC2)c1csc(-c2cccc(F)c2)n1` [Compound 37], the IC50 [2] is reported as 32 µM and the “fold reduction in inhibition” value [2] is reported as ~ 50 fold.
With `CC(C)(NC(=O)O[C@@H]1CN2CCC1CC2)c1csc(-c2ccc(F)c(O)c2)n1` [GD433] the IC50 [3] was under 0.03 µM, the inhibition ([4]; at 100 μM, 40 other methyltransferases) was “less than 50%” and the inhibition ([4]; single dose of 50 μM) was “did not show significant inhibition”.
With `CC(C)(NC(=O)O[C@@H]1CN2CCC1CC2)c1csc(-c2ccc(F)cc2O)n1` [Compound 44] the “fold less potent than 43” value ([2]; NTMT1 IC50) was 10 fold.
In the case of `CC(C)c1nc(C(C)(C)NC(=O)O[C@@H]2CN3CCC2CC3)cs1` [Compound 21, (S)-quinuclidin-3-yl (2-(2-Isopropylthiazol-4-yl)propan-2-yl)carbamate], the “fold loss of potency” value ([2]; NTMT1 IC50) is reported as “over 150 fold”.
For `O=C(NCc1csc(-c2ccc(F)cc2)n1)O[C@@H]1CN2CCC1CC2` [Compound 11, (S)-quinuclidin-3-yl ((2-(4-Fluorophenyl)thiazol-4-yl)methyl)carbamate], the “NTMT1 inhibition (in words)” value [2] was “losing the inhibitory activity even at 100 μM”.
With `CC(C)(NC(=O)O[C@@H]1CN2CCC1CC2)c1csc(-c2ccc(Cl)c(O)c2)n1` [YD2200] the “fold improved potency compared to venglustat” value ([2]; NTMT1 IC50) was 5 fold and the IC50 [2] was 0.11 µM.
Molecule `CC(C)(NC(=O)O[C@@H]1CN2CCC1CC2)c1csc(-c2ccncc2)n1` [Compound 25] has an IC50 [2] of over 100 µM.
With `CC(C)(NC(=O)O[C@@H]1CN2CCC1CC2)c1csc(-c2cccc([N+](=O)[O-])c2)n1` [Compound 39] the “fold reduction in inhibition” value [2] was ~ 50 fold.

From article PMC9892271 (Journal of medicinal chemistry, 2023)
